In ChEMBL document CHEMBL4610001 (J Med Chem, 2020):
Calls of active or inactive are those of the source. The rule behind the calls is not given here.

Chains of the proteins cited; added tags and fusions are not shown. Lines headed by an entry give the natural chain unless they say otherwise; changes in a name come on top.
UniProt Q9HBW0, whole entry: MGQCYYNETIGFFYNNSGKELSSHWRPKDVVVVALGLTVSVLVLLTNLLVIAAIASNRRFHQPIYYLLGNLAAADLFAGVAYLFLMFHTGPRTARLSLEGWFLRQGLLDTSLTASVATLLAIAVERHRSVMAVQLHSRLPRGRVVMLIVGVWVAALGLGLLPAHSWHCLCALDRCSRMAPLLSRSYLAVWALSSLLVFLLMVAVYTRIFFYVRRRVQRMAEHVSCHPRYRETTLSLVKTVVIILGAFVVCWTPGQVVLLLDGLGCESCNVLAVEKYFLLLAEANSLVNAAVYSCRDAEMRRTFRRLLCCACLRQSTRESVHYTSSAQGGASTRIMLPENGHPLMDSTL
UniProt Q99677: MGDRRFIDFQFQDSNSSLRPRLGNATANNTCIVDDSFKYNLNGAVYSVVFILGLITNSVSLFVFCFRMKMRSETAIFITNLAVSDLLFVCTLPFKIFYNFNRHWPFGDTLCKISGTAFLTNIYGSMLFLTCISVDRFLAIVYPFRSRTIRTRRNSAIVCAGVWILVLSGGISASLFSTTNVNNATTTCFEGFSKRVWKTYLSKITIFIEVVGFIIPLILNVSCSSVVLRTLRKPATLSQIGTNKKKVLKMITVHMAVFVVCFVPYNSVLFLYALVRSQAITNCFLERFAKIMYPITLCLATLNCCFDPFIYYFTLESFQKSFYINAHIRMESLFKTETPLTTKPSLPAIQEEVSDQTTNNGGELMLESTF
UniProt Q9H1C0: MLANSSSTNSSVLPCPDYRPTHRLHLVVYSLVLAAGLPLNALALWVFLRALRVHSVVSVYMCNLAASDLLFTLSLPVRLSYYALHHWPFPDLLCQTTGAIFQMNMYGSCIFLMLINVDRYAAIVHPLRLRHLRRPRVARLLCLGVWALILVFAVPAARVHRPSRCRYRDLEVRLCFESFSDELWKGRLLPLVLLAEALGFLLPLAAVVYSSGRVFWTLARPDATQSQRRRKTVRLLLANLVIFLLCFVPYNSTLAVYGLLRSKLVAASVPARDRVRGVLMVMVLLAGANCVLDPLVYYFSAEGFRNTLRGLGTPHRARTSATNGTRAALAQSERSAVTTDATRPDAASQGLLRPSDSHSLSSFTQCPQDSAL

Key:
[1] = target: Lysophosphatidic acid receptor 2 (Homo sapiens) (UniProt Q9HBW0); test: Agonist activity at human Flag-tagged LPA2 expressed in rat B103 cells assessed as increase in intracellular calcium level by Fluo-4 NW dye based fluorescence assay; format: functional, cell-based
[2] = target: T1, Lysophosphatidic acid receptor 3 (Homo sapiens) (UniProt Q9UBY5); test: Agonist activity at human Flag-tagged LPA3 expressed in rat B103 cells assessed as increase in intracellular calcium level by Fluo-4 NW dye based fluorescence assay; format: functional, cell-based
T1 sequence (whole entry): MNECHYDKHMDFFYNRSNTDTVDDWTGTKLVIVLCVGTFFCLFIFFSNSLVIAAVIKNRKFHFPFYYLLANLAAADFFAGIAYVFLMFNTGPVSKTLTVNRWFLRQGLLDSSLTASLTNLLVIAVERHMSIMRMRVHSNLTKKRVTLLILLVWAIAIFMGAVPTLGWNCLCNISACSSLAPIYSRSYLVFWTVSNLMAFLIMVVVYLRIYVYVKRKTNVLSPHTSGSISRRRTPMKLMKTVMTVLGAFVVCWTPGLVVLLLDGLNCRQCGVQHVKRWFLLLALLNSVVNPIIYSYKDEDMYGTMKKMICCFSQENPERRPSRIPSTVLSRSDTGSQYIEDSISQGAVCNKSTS

[3] = target: Lysophosphatidic acid receptor 4 (Homo sapiens) (UniProt Q99677); test: Agonist activity at human LPA4 expressed in rat B103 cells assessed as increase in intracellular calcium level by Fluo-4 NW dye based fluorescence assay; format: functional, cell-based
[4] = target: Lysophosphatidic acid receptor 5 (Homo sapiens) (UniProt Q9H1C0); test: Agonist activity at human LPA5 expressed in rat B103 cells assessed as increase in intracellular calcium level by Fluo-4 NW dye based fluorescence assay; format: functional, cell-based
[5] = target: T2, Lysophosphatidic acid receptor 6 (Homo sapiens) (UniProt P43657); test: Agonist activity at human LPA6 expressed in rat B103 cells assessed as increase in intracellular calcium level by Fluo-4 NW dye based fluorescence assay; format: functional, cell-based
T2 sequence (whole entry): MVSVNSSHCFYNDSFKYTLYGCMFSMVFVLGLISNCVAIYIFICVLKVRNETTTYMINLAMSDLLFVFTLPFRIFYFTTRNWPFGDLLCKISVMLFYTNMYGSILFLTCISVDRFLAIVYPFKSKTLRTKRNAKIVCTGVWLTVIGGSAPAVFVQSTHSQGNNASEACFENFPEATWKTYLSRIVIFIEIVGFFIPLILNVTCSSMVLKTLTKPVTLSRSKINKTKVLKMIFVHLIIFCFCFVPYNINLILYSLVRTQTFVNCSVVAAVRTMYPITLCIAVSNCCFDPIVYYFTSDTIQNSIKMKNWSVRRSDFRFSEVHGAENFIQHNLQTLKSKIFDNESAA

Autotaxin (Homo sapiens) = Autotaxin (Homo sapiens) (UniProt Q13822)

Activity [1]: inactive | Activity [2]: inactive | Activity [3]: inactive | Activity [4]: inactive | Activity [5]: inactive | Activity (Autotaxin (Homo sapiens)): inactive
Structure (SMILES): O=C(CCCCCCCCCc1ccccc1)O[C@H](CBr)COP(=O)(O)O
